Results on 76 molecules are retold here after PubChem BioAssay AID1956 (SRMLSC, 2009).

Only a part is listed here, and it is no random draw. Activity calls are given as the source filed them. Rule as the data show it: active = maximum fold increase above about 1.5; inconclusive = no clear call, values can overlap the other calls; inactive = below that; tested in PC3 cells.

The nature of the assay: compounds boosting herpes simplex virus growth – fold increase, host cell viability (AID 1956). Particulars: HSV replication augmentation in cells; at 3.125 µM, active compounds read high.
`COc1cc(I)ccc1[As](=O)(O)O`: the maximum fold increase result was “inactive”.
The entry for `COc1ccc2nc(NP(=O)(c3ccccc3)c3ccccc3)sc2c1` is “inactive”; for `CCOC(=O)c1ccc(NC(=O)C(C)(CCl)SC)cc1` (stereo unspecified) it is “inactive”.
With `CCOC(=O)c1ccc(NP(C)(=O)Oc2ccc(OC)cc2)cc1` (stereo unspecified), the maximum fold increase result is “inactive”.
In the case of `CCOP(C)(=S)SCC(=O)NC(C)C(=O)O` (stereo unspecified), the maximum fold increase entry is “inactive”.
The entry for `CP(=O)(Nc1ccccn1)Oc1ccc(Cl)cc1` (stereo unspecified) is “inactive”; for `CCC(C)N(CC(C)C)C(=S)SC(NC(C)=O)C(Cl)(Cl)Cl` (stereo unspecified) it is “inactive”; for `CP(=O)(Oc1ccccc1)OC(c1ccccc1)C(F)(F)F` (stereo unspecified) it is “inactive”.
With `CP(=O)(Nc1ccc(SC(F)(F)F)cc1)Oc1ccc(Cl)cc1` (stereo unspecified) the entry was “inactive”; with `Cc1cccc(C)c1OP(C)(=O)Nc1ccc(SC(F)(F)F)cc1` (stereo unspecified), “inactive”; with `COP1(=S)c2c(C)nn(CCC#N)c2N=C(c2ccc(F)cc2)N1C` (stereo unspecified), “inactive”.
For the molecule `Cc1cc(C)cc(OP(C)(=O)Nc2ccc(SC(F)(F)F)cc2)c1` (stereo unspecified), the maximum fold increase entry is “inactive”.
With `CCc1ccc(OP(C)(=O)N2CCN(c3ccc([N+](=O)[O-])cc3)CC2)cc1` (stereo unspecified) the entry was “inactive”.
For `CP(=O)(NC(=O)Nc1ccccc1)Oc1ccccc1` (stereo unspecified), the maximum fold increase entry is “inactive”.
For the molecule `CCOC(=O)Nc1cccc([As](=O)(O)O)c1`, the maximum fold increase result was “inactive”.
With `CP(=S)(Nn1cnnc1)Oc1ccccc1` (stereo unspecified) the entry was “inactive”; with `O=[N+]([O-])c1ccc(Nc2ccc(Oc3ccc([N+](=O)[O-])cc3[N+](=O)[O-])cc2)c([N+](=O)[O-])c1`, “inactive”.
With `CP(=O)(Nc1ccccc1Br)Oc1ccccc1` (stereo unspecified) the entry was “inactive”; with `COc1ccccc1OP(C)(=O)Nc1ccccc1` (stereo unspecified), “inactive”; with `Cc1cc(SC(NC=O)C(Cl)(Cl)Cl)ncn1` (stereo unspecified), “inactive”.
On to `O=P(Nc1ccccn1)(c1cccc2ccccc12)c1cccc2ccccc12`, for which the maximum fold increase result was “inactive”.
The entry for `CCOC(=O)Nc1ccc([As](=O)(O)O)c(O)c1` is “inactive”; for `Cc1cc(SC(NC(=O)c2ccccc2)C(Cl)(Cl)Cl)nc(C(C)C)n1` (stereo unspecified) it is inactive: 1.05.
With `CC(C)(C)C(=O)NC(Sc1ccncn1)C(Cl)(Cl)Cl` (stereo unspecified), the maximum fold increase result was “inactive”.
With `O=[N+]([O-])c1ncn(CCn2ncnc2[N+](=O)[O-])n1`, the maximum fold increase entry was “inactive”.
With `O=[N+]([O-])c1cccc(NC2=NCC(CBr)S2)c1` (stereo unspecified) the entry was “inactive”.
The entry for `O=C(O)CNc1ccc([As](=O)(O)O)cc1` is “inactive”; for `O=C(Nc1cc([As](=O)(O)O)ccc1O)c1ccccc1` it is “inactive”; for `CCOC(=O)c1ccc(NP(C)(=O)Oc2ccc(Cl)cc2)cc1` (stereo unspecified) it is “inactive”.
With `CP(=O)(OC12CC3CC(CC(C3)C1)C2)OC12CC3CC(CC(C3)C1)C2`, the maximum fold increase entry is “inactive”.
With `C[N+]1=C2C=CC=CC=C2SC12C([N+](=O)[O-])=CC([N+](=O)[O-])=C[C-]2[N+](=O)[O-]` (stereo unspecified) the entry was “inactive”.
On to `Nc1ccc([As](=O)(O)c2ccc(N)cc2)cc1`, for which the maximum fold increase entry was “inactive”.
`CC(C)(C)c1ccc(OP(C)(=O)O)cc1`: the maximum fold increase entry was “inactive”.
With `COc1ccccc1OP(C)(=O)Nc1ccccc1Br` (stereo unspecified) the entry was “inactive”.
With `CP(=O)(Nc1ccc(Cl)cc1)Oc1ccc(F)cc1` (stereo unspecified) the entry was “inactive”.
With `CCN(/C(=N/P(=O)(N1CCOCC1)N1CCOCC1)N1CCOCC1)c1ccc(OC)cc1` the entry was “inactive”; with `CN(C)C(=O)OCCc1n(C)cc[n+]1C`, “inactive”.
As for `CC(C)=N/N=C(\N)N[N+](=O)[O-]`, the maximum fold increase result is “inactive”.
In the case of `CN(C)C(=O)c1c([N+](=O)[O-])cc([N+](=O)[O-])cc1[N+](=O)[O-]`, the maximum fold increase entry is “inactive”.
The entry for `CC1CCN(C(=O)Oc2c(Cl)cc(Cl)c3cccnc23)CC1` is “inactive”; for `COc1ccc(OP(C)(=O)Nc2ccc(Br)cc2)cc1` (stereo unspecified) it is “inactive”.
Regarding `COc1ccc(C2=NCC(CBr)S2)cc1` (stereo unspecified), the maximum fold increase result was “inactive”.
Turning to `CCN(CC)CC(O)COC(=O)C(O)(c1ccccc1)C1CCCCC1` (stereo unspecified), the maximum fold increase entry is “inactive”.
For `O=C(OCCCN1CCCC1)C(O)(c1ccccc1)C1CCCCC1` (stereo unspecified), the maximum fold increase entry is “inactive”.
With `COc1ccccc1OP(C)(=O)Nc1c(C)n(C)n(-c2ccccc2)c1=O` (stereo unspecified) the entry was “inactive”.
`CC(=O)N1C2C3N(C(C)=O)C1C1N(C(C)=O)C(C(N1C(C)=O)N3C(C)=O)N2C(C)=O`: the maximum fold increase result is “inactive”.
The entry for `O=[N+]([O-])c1cccc2n[nH]nc12` is “inactive”; for `O=[N+]([O-])c1cc([N+](=O)[O-])c(CCNc2ccccc2)c([N+](=O)[O-])c1` it is “inactive”.
With `CCc1nc2c(n1)c1c(non1O)c1c2no[n+]1[O-]` the entry was “inactive”; with `CCc1ccc(OP(C)(=O)Nc2cccnc2)cc1` (stereo unspecified), “inactive”; with `CP(=O)(Oc1ccccc1)N1CCOC1=O` (stereo unspecified), “inactive”.
The entry for `Cc1ccc(NP(=O)(Oc2ccccc2)Oc2ccccc2)nc1` is “inactive”; for `O=[N+]([O-])c1cc([N+](=O)[O-])c(Nc2ccccn2)c([N+](=O)[O-])c1` it is “inactive”; for `CC(C)CC(=O)NC(Sc1ccc(Cl)cc1)C(Cl)(Cl)Cl` (stereo unspecified) it is “inactive”.
As to `Nc1cc(N)c2nonc2c1[N+](=O)[O-]`, the maximum fold increase entry is “inactive”.
Regarding `Cc1c(NP(C)(=O)Oc2ccc(C(C)C)cc2)c(=O)n(-c2ccccc2)n1C` (stereo unspecified), the maximum fold increase entry was “inactive”.
For the molecule `Cc1c2non([O-])c-2c(C)[n+](=O)[n+]1[O-]`, the maximum fold increase entry is “inactive”.
Consider `O=C(NC(Sc1ccncn1)C(Cl)(Cl)Cl)c1ccccc1` (stereo unspecified), for which the maximum fold increase entry is “inactive”.
The entry for `Oc1ccccc1CNc1ccccn1` is “inactive”; for `COc1ccccc1OP(C)(=O)Nc1ccc(C)cc1C` (stereo unspecified) it is “inactive”; for `CP(=O)(Nc1ccccn1)Oc1ccccc1` (stereo unspecified) it is “inactive”.
With `CCc1ccc(OP(C)(=O)O)cc1` the entry was “inactive”; with `NC(=O)c1cc([N+](=O)[O-])cc([N+](=O)[O-])c1N`, “inactive”; with `Cc1ccc(N/C(=N/P(=O)(N2CCOCC2)N2CCOCC2)N2CCOCC2)cc1`, “inactive”.
The entry for `COc1ccccc1OP(C)(=O)Nc1ccc(Br)cc1` (stereo unspecified) is “inactive”; for `Cc1ccc(OP(=O)(Nc2nccs2)Oc2ccc(C)cc2)cc1` it is “inactive”; for `COc1ccc(OP(C)(=O)Nc2ccccn2)cc1` (stereo unspecified) it is “inactive”.
On to `COc1ccccc1OP(=O)(Nc1ccc(C)cn1)Oc1ccccc1OC`, for which the maximum fold increase result is “inactive”.
With `CN(C)CCOC(=O)C(O)(c1ccccc1)C1CCCC1` (stereo unspecified) the entry was “inactive”.
With `Clc1ccc(Cl)c(NC2=NCC(CBr)S2)c1` (stereo unspecified), the maximum fold increase entry was “inactive”.
With `CN1CCCC(OC(=O)C(c2ccccc2)c2ccccc2)C1` (stereo unspecified), the maximum fold increase entry was “inactive”.
`Cc1nc2ccc3ccccc3c2o1.O=[N+]([O-])c1cc([N+](=O)[O-])c(O)c([N+](=O)[O-])c1`: the maximum fold increase entry was “inactive”.
The entry for `CCN(N=Nc1nonc1N)c1nonc1N` is “inactive”; for `CP(=O)(OCCOc1ccccc1)OCCOc1ccccc1` it is “inactive”; for `CP(=O)(Nc1ccc(Cl)cc1Cl)Oc1ccccc1` (stereo unspecified) it is “inactive”.
For `Nc1cccc2ccc([As](=O)(O)O)cc12`, the maximum fold increase entry was “inactive”.
